For one compound, IC50 results are on record in ChEMBL document CHEMBL5143570, “Development of naringenin-O-carbamate derivatives as multi-target-directed liagnds for the treatment of Alzheimer's disease” (Bioorg Med Chem Lett, 2022).

Chains of the proteins cited; added tags and fusions are not shown.
UniProt P06276, whole entry: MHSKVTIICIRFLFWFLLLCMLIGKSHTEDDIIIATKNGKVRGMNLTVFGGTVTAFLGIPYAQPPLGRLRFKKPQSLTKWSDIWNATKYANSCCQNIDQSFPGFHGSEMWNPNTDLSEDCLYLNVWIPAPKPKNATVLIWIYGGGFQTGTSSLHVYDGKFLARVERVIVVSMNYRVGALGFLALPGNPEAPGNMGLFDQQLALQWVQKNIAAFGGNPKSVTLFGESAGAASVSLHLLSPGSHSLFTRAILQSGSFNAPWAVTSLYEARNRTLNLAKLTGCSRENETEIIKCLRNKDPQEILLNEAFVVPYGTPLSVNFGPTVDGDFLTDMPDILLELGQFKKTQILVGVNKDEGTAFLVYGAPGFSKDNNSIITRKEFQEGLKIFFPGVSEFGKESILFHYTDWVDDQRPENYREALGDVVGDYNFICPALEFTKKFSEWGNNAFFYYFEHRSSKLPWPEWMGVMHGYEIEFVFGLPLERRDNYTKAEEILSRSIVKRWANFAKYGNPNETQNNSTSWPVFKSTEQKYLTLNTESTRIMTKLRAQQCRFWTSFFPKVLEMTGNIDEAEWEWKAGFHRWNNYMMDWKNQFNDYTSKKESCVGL

Structures are written as SMILES. pIC50: −log10 of the molar value.

For this assay, the target named is Cholinesterase (Homo sapiens, UniProt P06276). Description: Inhibition of human serum BuChE using butyrylthiocholine as substrate incubated for 15 mins by DTNB reagent based Ellman's method. It is filed as cell-free. (Ellman's reagent forms a yellow product with free thiols.)

For `CCN(C)C(=O)Oc1cccc([C@H](C)N(C)C)c1` [RIVASTIGMINE], the pIC50 (commonly the negative decadic logarithm of the IC50, by convention in mol/L) was 5.37.
